# Measured affinities in a library of Ab-95 light chain variants

From the AlphaSeq antibody data of Engelhart et al. 2022 (doi:10.1038/s41597-022-01779-4), copy in the FLAb collection.

Target peptide (SARS-CoV-2 spike, HR2 region): PDVDLGDISGINAS

Each scFv is VH, three GGGGS repeats, VL, as in the parent Ab-95, and differs from it in the CDRs of the light chain only.
VH: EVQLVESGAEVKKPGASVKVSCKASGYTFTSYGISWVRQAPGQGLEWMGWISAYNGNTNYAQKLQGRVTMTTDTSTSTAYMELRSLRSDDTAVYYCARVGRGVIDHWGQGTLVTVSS
VL: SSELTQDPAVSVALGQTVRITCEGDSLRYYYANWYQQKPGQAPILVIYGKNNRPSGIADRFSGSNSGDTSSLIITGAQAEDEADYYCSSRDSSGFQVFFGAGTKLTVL

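In library AAYL52, one, two or three CDR residues were substituted; doubles and triples were drawn at random. The scFvs were displayed on barcoded MATa yeast, the peptide on MATalpha yeast. Pairs that bind mate more often; barcode pairs of the diploids are counted by sequencing. A regression on co-assayed BCL2-family reference pairs converts the normalised counts of each replicate to an apparent Kd. Mating was done three times.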

Each variant is given by its three light chain CDRs, as the data file delimits them; those of the parent are EGDSLRYYYAN, GKNNRPS, SSRDSSGFQVF.
Every variant below is changed at S93 of the VL (sequential numbering).
Values are apparent Kd, the geometric mean of the replicates that gave a signal; lower means stronger binding.
"nd" marks a missing value. The strain was present, yet no cells mated with the target were sequenced in any replicate, which points to weak or no binding.
As a blank, each scFv also met three strains without target: over library AAYL52, 28% of these pairings were detected, typically at 8.2 µM and seldom below 800 nM. The control count says in how many pairings with the empty strains this scFv gave a signal.

Variant EGDSLRYYYAN | GKNNRPN | SSQDSGGFQVF gave nd (0 of 3 replicates; controls 0 of 9).
Variant EGDSLRPYYAN | GKNNRPS | SSRDSPGFQVH gave 3.1 µM (3 of 3 replicates; controls 4 of 9).
Variant EAGSLRYYYAN | GKNNRPS | SSRDSPGFQVF gave 14 µM (2 of 3 replicates; controls 1 of 9).
Variant EGDSLRYYYAN | WKNNRPS | SSFDSWGFQVF gave 17 µM (1 of 3 replicates; controls 1 of 9).
Variant EGDSLRYRYAN | GKNNRPS | SSRDSYGFQNF gave 590 nM (3 of 3 replicates; controls 2 of 9).
Variant EGDSLRYYYAN | GKNNRPD | SSRDSAGFQVF gave 190 nM (3 of 3 replicates; controls 3 of 9).
Variant EGVSLRYYYAN | GKNLRPS | SSRDSCGFQVF gave 190 µM (1 of 3 replicates; controls 3 of 9).
Variant EGDSLRYVYAN | GKNNRPS | SSRDSVGFQVV gave 8.8 µM (2 of 3 replicates; controls 2 of 9).
Variant EGDQLRYYYAN | GKNNRPS | STRDSFGFQVF gave 450 nM (1 of 3 replicates; controls 1 of 9).
Variant EGDSLRYYYAN | QKNNRPS | SSRDSRGFQVF gave 1.8 µM (1 of 3 replicates; controls 1 of 9).
Variant EGDSLRYYYAN | GENNRPS | SSRDSPGNQVF gave 720 nM (3 of 3 replicates; controls 1 of 9).
Variant EGGSLRYYYAN | GKNNRPS | SSRDSPGFQVF gave 410 nM (3 of 3 replicates; controls 4 of 9).
Variant EGDSMRYYYAN | GKMNRPS | SSRDSGGFQVF gave 2.8 µM (2 of 3 replicates; controls 3 of 9).
Variant EGDSLRYYYAN | GKNNRPS | SSRDSIGFQVF gave 150 nM (3 of 3 replicates; controls 1 of 9).
Variant EGDSLRAYYAN | GKNNRPS | FSRDSTGFQVF gave 340 nM (3 of 3 replicates; controls 2 of 9).
Variant EGDSLRYYYAN | GKNNRTS | SARDSEGFQVF gave 1.0 µM (2 of 3 replicates; controls 2 of 9).
Variant EGDSLRYYYAN | GKNNRSS | SSTDSHGFQVF gave 140 nM (3 of 3 replicates; controls 2 of 9).
Variant EGMSLRYYGAN | GKNNRPS | SSRDSTGFQVF gave 48 nM (3 of 3 replicates; controls 2 of 9).
Variant EGDSLQYRYAN | GKNNRPS | SSRDSIGFQVF gave 18 µM (3 of 3 replicates; controls 2 of 9).
Variant EGDSLRYYYAN | GKNNHPS | SSRDSTGIQVF gave 970 nM (3 of 3 replicates; controls 3 of 9).
Variant YGDSLRYYYAN | GKNNRIS | SSRDSLGFQVF gave nd (0 of 3 replicates; controls 4 of 9).
Variant EGDSCRYYYAN | GKNNRPS | SSRDSTGFQVF gave 9.0 µM (2 of 3 replicates; controls 5 of 9).
Variant EGDSLRYYYAN | GKNNRPS | SSNDSDGFQVF gave 35 µM (2 of 3 replicates; controls 2 of 9).
Variant EGDSLRYYYAN | GKNNRPS | SSRDSEQFQKF gave 2.9 µM (1 of 3 replicates; controls 1 of 9).
Variant EGDSLRYYYAN | GKNNRPS | SSRDSYGFQVT gave 11 µM (2 of 3 replicates; controls 2 of 9).
Variant EGTSLWYYYAN | GKNNRPS | SSRDSFGFQVF gave 1.2 µM (1 of 3 replicates; controls 4 of 9).
Variant EGDSLRYYYAN | GKNTRPA | SSRDSVGFQVF gave 620 nM (3 of 3 replicates; controls 5 of 9).
Variant EGDSLRYYYAN | GKGNRPS | SSRDSAGFQVF gave 220 nM (3 of 3 replicates; controls 4 of 9).
Variant EGDSLRYSYAN | GKNNRPS | FSRDSCGFQVF gave 8.3 nM (3 of 3 replicates; controls 2 of 9).
Variant EGDLLRYYYAN | GKNNRPS | SSRDSYGFQVF gave 2.0 µM (1 of 3 replicates; controls 1 of 9).
Variant EWDSLRYYYAN | GKNNRPS | SSRDSDGFQVI gave 23 µM (1 of 3 replicates; controls 7 of 9).
Variant EGDSLRYYYAN | DKNNRPS | SSRDSFGFQVS gave 760 nM (3 of 3 replicates; controls 0 of 9).
Variant EGDSLRYYYAN | GKNNKPS | SSRDSDGFGVF gave 250 nM (3 of 3 replicates; controls 2 of 9).
Variant EPDSLRYYYRN | GKNNRPS | SSRDSVGFQVF gave 3.4 µM (2 of 3 replicates; controls 1 of 9).
Variant YGDNLRYYYAN | GKNNRPS | SSRDSIGFQVF gave 1.7 µM (3 of 3 replicates; controls 4 of 9).
Variant EGDSLRYYYAN | GVNNRPQ | SSRDSEGFQVF gave 1.9 µM (3 of 3 replicates; controls 2 of 9).
Variant EGDSLRYYYAN | GKNNRPS | SSRDSIGFNVF gave 1.3 µM (3 of 3 replicates; controls 1 of 9).
Variant EGDELRYYYAN | GKNNRPS | SSRDSNGFQVF gave 550 nM (1 of 3 replicates; controls 2 of 9).
Variant EGDSLRYYYAN | GKSNRPS | SSRDSPGFGVF gave 580 nM (3 of 3 replicates; controls 0 of 9).
Variant EGDSLRYYYAN | GKCNRPM | SSRDSQGFQVF gave 6.1 µM (1 of 3 replicates; controls 5 of 9).
Variant EGDSLRYWYAN | GKNNRPS | SSRDHTGFQVF gave 680 nM (3 of 3 replicates; controls 0 of 9).
Variant FGDSLRYYYAN | GKNNRPP | SSRDSEGFQVF gave 5.8 µM (1 of 3 replicates; controls 0 of 9).
Variant EIDSLRYYYAN | GGNNRPS | SSRDSGGFQVF gave 4.0 µM (3 of 3 replicates; controls 4 of 9).
Variant EGDSLRYYYAN | GCNNRPS | NSRDSTGFQVF gave 8.6 µM (1 of 3 replicates; controls 1 of 9).

5 of these entries, quoted again:

CDR-L1	CDR-L2	CDR-L3	Kd	replicates with signal	empty controls
EWDSLRYYYAN	GKNNRPS	SSRDSDGFQVI	23 µM	1 of 3	7 of 9
EGDSLRYYYAN	GKNNRPN	SSQDSGGFQVF	nd	0 of 3	0 of 9
EGDSLRPYYAN	GKNNRPS	SSRDSPGFQVH	3.1 µM	3 of 3	4 of 9
EGDSLRYYYAN	GKNNRPS	SSRDSEQFQKF	2.9 µM	1 of 3	1 of 9
EGGSLRYYYAN	GKNNRPS	SSRDSPGFQVF	410 nM	3 of 3	4 of 9

For reference, the parent read 200 nM as the reference entry and 180 nM as a member of this library.